# Test system: NudT9H domain
# Test: Thermal unfolding of NudT9H by nDSF
# Type: binding, human
# Conditions: nDSF (F350/F330), NudT9H 0.2 mg/ml in presence of ADPR; 1 °C/min; 25 mM Tris pH 7.4, 150 mM NaCl, 2 mM CaCl2, 10% glycerol
substance,measurement,value
Adenosine diphosphate ribose [ADPR],Tm of NudT9H in the presence of ADPR,about 42 °C

# Reference: publication PMC6646794 (Biochimica et Biophysica Acta. Molecular Cell Research, 2019)
